{"source": "ChEMBL document CHEMBL1123878", "about": "“Potential antitumor agents. 50. In vivo solid-tumor activity of derivatives of N-[2-(dimethylamino)ethyl]acridine-4-carboxamide” (J Med Chem, 1987)", "key": {"Nucleic Acid [1]": {"tested_on": "Nucleic Acid", "assay": "Binding constant to poly(dG-dC)DNA by ethidium bromide displacement", "type": "nucleic-acid assay", "in_short": "(§1)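 Association constants derived from the drug concentration displacing 50% of bound ethidium from the polynucleotide, assuming competitive binding of drug and ethidium to DNA.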"}, "Nucleic Acid [2]": {"tested_on": "Nucleic Acid", "assay": "Binding constant to poly(dA-dT)DNA by ethidium bromide displacement", "type": "nucleic-acid assay", "in_short": "as §1"}}, "data": [{"smiles": "Cc1ccc2cc3ccccc3nc2c1C(=O)NCCN(C)C.Cl.Cl", "values": [{"measurement": "Log K", "setting": "Nucleic Acid [1]", "value": 6.11}, {"measurement": "Log K", "setting": "Nucleic Acid [2]", "value": 5.74}]}, {"smiles": "CN(C)CCCCCNC(=O)c1cccc2cc3ccccc3nc12.Cl", "values": [{"measurement": "Log K", "setting": "Nucleic Acid [1]", "value": 6.38}, {"measurement": "Log K", "setting": "Nucleic Acid [2]", "value": 6.16}]}, {"smiles": "Cc1ccc2nc3c(C(=O)NCCN(C)C)cccc3cc2c1.Cl.Cl", "values": [{"measurement": "Log K", "setting": "Nucleic Acid [1]", "value": 7}, {"measurement": "Log K", "setting": "Nucleic Acid [2]", "value": 6.97}]}, {"smiles": "CN(C)CCNC(=O)c1cccc2cc3ccccc3nc12.Cl.Cl", "values": [{"measurement": "Log K", "setting": "Nucleic Acid [1]", "value": 6.54}]}, {"smiles": "Cc1cccc2nc3c(C(=O)NCCN(C)C)cccc3cc12.Cl.Cl.O.O", "values": [{"measurement": "Log K", "setting": "Nucleic Acid [1]", "value": 7.96}, {"measurement": "Log K", "setting": "Nucleic Acid [2]", "value": 7}]}, {"smiles": "COc1cccc2nc3c(C(=O)NCCN(C)C)cccc3cc12.Cl", "values": [{"measurement": "Log K", "setting": "Nucleic Acid [1]", "value": 7.23}, {"measurement": "Log K", "setting": "Nucleic Acid [2]", "value": 7.14}]}, {"smiles": "COc1ccc2cc3cccc(C(=O)NCCN(C)C)c3nc2c1.Cl.Cl", "values": [{"measurement": "Log K", "setting": "Nucleic Acid [1]", "value": 8.39}, {"measurement": "Log K", "setting": "Nucleic Acid [2]", "value": 7.28}]}, {"smiles": "CNCCNC(=O)c1cccc2cc3ccccc3nc12.Cl.Cl", "values": [{"measurement": "Log K", "setting": "Nucleic Acid [1]", "value": 6.9}, {"measurement": "Log K", "setting": "Nucleic Acid [2]", "value": 6.43}]}, {"smiles": "CN(C)CCNC(=O)c1cccc2cc3cccc(Cl)c3nc12.Cl.Cl", "values": [{"measurement": "Log K", "setting": "Nucleic Acid [1]", "value": 7.2}, {"measurement": "Log K", "setting": "Nucleic Acid [2]", "value": 7.63}]}, {"smiles": "Cl.Cl.O=C(NCCNCCO)c1cccc2cc3ccccc3nc12", "values": [{"measurement": "Log K", "setting": "Nucleic Acid [1]", "value": 7.09}, {"measurement": "Log K", "setting": "Nucleic Acid [2]", "value": 6.94}]}, {"smiles": "COc1ccc2nc3c(C(=O)NCCN(C)C)cccc3cc2c1.Cl.Cl", "values": [{"measurement": "Log K", "setting": "Nucleic Acid [1]", "value": 7.07}, {"measurement": "Log K", "setting": "Nucleic Acid [2]", "value": 6.87}]}, {"smiles": "Cc1ccc(C(=O)NCCN(C)C)c2nc3ccccc3cc12.Cl.Cl", "values": [{"measurement": "Log K", "setting": "Nucleic Acid [1]", "value": 8.06}, {"measurement": "Log K", "setting": "Nucleic Acid [2]", "value": 7.12}]}, {"smiles": "CN(C)CCNC(=O)c1cccc2cc3cc(Cl)ccc3nc12.Cl.Cl", "values": [{"measurement": "Log K", "setting": "Nucleic Acid [1]", "value": 7.14}, {"measurement": "Log K", "setting": "Nucleic Acid [2]", "value": 6.87}]}, {"smiles": "CN(C)CCNC(=O)c1cccc2cc3ccc(Cl)cc3nc12.Cl", "values": [{"measurement": "Log K", "setting": "Nucleic Acid [1]", "value": 7}, {"measurement": "Log K", "setting": "Nucleic Acid [2]", "value": 6.73}]}, {"smiles": "COc1cccc2cc3cccc(C(=O)NCCN(C)C)c3nc12.Cl", "values": [{"measurement": "Log K", "setting": "Nucleic Acid [1]", "value": 7.38}, {"measurement": "Log K", "setting": "Nucleic Acid [2]", "value": 7.96}]}, {"smiles": "CCN(CC)CCNC(=O)c1cccc2cc3ccccc3nc12.Cl.Cl", "values": [{"measurement": "Log K", "setting": "Nucleic Acid [1]", "value": 6.38}, {"measurement": "Log K", "setting": "Nucleic Acid [2]", "value": 6.51}]}, {"smiles": "Cc1cc(C(=O)NCCN(C)C)c2nc3ccccc3cc2c1.Cl.Cl", "values": [{"measurement": "Log K", "setting": "Nucleic Acid [1]", "value": 7.05}, {"measurement": "Log K", "setting": "Nucleic Acid [2]", "value": 6.8}]}, {"smiles": "Cc1c2ccccc2nc2c(C(=O)NCCN(C)C)cccc12.Cl.Cl", "values": [{"measurement": "Log K", "setting": "Nucleic Acid [1]", "value": 8.48}, {"measurement": "Log K", "setting": "Nucleic Acid [2]", "value": 7.75}]}, {"smiles": "CN(C)CCCNC(=O)c1cccc2cc3ccccc3nc12.Cl.Cl", "values": [{"measurement": "Log K", "setting": "Nucleic Acid [1]", "value": 6.42}, {"measurement": "Log K", "setting": "Nucleic Acid [2]", "value": 6.13}]}, {"smiles": "COc1cc(C(=O)NCCN(C)C)c2nc3ccccc3cc2c1.Cl.Cl", "values": [{"measurement": "Log K", "setting": "Nucleic Acid [1]", "value": 8.25}, {"measurement": "Log K", "setting": "Nucleic Acid [2]", "value": 7.14}]}, {"smiles": "COc1ccc(C(=O)NCCN(C)C)c2nc3ccccc3cc12.Cl.Cl", "values": [{"measurement": "Log K", "setting": "Nucleic Acid [1]", "value": 7.96}, {"measurement": "Log K", "setting": "Nucleic Acid [2]", "value": 7.05}]}, {"smiles": "CN(C)CCNC(=O)c1ccc2nc3ccccc3cc2c1.Cl.Cl", "values": [{"measurement": "Log K", "setting": "Nucleic Acid [1]", "value": 7.59}, {"measurement": "Log K", "setting": "Nucleic Acid [2]", "value": 7.17}]}, {"smiles": "CN(C)CCNC(=O)c1cc(Cl)cc2cc3ccccc3nc12.Cl.Cl", "values": [{"measurement": "Log K", "setting": "Nucleic Acid [1]", "value": 7.31}, {"measurement": "Log K", "setting": "Nucleic Acid [2]", "value": 7.12}]}, {"smiles": "Cc1ccc2cc3cccc(C(=O)NCCN(C)C)c3nc2c1.Cl.Cl", "values": [{"measurement": "Log K", "setting": "Nucleic Acid [1]", "value": 7.26}, {"measurement": "Log K", "setting": "Nucleic Acid [2]", "value": 6.93}]}, {"smiles": "CN(C)CCCCCCNC(=O)c1cccc2cc3ccccc3nc12.Cl", "values": [{"measurement": "Log K", "setting": "Nucleic Acid [1]", "value": 6.36}, {"measurement": "Log K", "setting": "Nucleic Acid [2]", "value": 6.54}]}, {"smiles": "Cl.Cl.NCCNC(=O)c1cccc2cc3ccccc3nc12", "values": [{"measurement": "Log K", "setting": "Nucleic Acid [1]", "value": 7.03}, {"measurement": "Log K", "setting": "Nucleic Acid [2]", "value": 7.05}]}, {"smiles": "CN(C)CCNC(=O)c1cccc2cc3c(Cl)cccc3nc12.Cl.Cl.Cl", "values": [{"measurement": "Log K", "setting": "Nucleic Acid [1]", "value": 6.96}, {"measurement": "Log K", "setting": "Nucleic Acid [2]", "value": 7}]}, {"smiles": "Cc1cccc2cc3cccc(C(=O)NCCN(C)C)c3nc12.Cl.Cl", "values": [{"measurement": "Log K", "setting": "Nucleic Acid [1]", "value": 7.42}, {"measurement": "Log K", "setting": "Nucleic Acid [2]", "value": 6.99}]}, {"smiles": "CN(C)CCNC(=O)c1ccc2cc3ccccc3nc2c1.Cl.Cl", "values": [{"measurement": "Log K", "setting": "Nucleic Acid [1]", "value": 6.94}, {"measurement": "Log K", "setting": "Nucleic Acid [2]", "value": 7.12}]}, {"smiles": "CN(C)CCCCNC(=O)c1cccc2cc3ccccc3nc12.Cl", "values": [{"measurement": "Log K", "setting": "Nucleic Acid [1]", "value": 6.4}, {"measurement": "Log K", "setting": "Nucleic Acid [2]", "value": 6.47}]}, {"smiles": "CN(C)CCNC(=O)c1ccc(Cl)c2cc3ccccc3nc12.Cl.Cl", "values": [{"measurement": "Log K", "setting": "Nucleic Acid [1]", "value": 7.2}, {"measurement": "Log K", "setting": "Nucleic Acid [2]", "value": 7.18}]}]}
